Earlier results, collected in publication PMC7078148.

Chains of the proteins cited; added tags and fusions are not shown. Residues count along the entry.
UniProt Q99714, 2-261: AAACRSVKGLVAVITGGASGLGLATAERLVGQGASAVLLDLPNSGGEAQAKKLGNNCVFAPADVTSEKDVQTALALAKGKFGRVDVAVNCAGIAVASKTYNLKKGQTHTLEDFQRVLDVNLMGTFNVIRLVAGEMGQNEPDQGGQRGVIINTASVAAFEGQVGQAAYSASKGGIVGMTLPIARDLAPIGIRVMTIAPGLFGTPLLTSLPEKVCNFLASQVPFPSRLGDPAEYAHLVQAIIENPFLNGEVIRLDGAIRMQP

Target: amyloid beta (Homo sapiens) (UniProt P05067)

Kd: 60 nM
Substance: 17β-HSD10 (from UniProt Q99714)
